Yeast UUG start-1: alters start codon recognition fidelity in yeast. S. cerevisiae UUG-firefly luciferase reporter, luminescence/redox ratio. activity score, % at 18.7 µM. 0.13% of 350,000 active. AID 602363;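 active = replicate mean at a twofold rise or more, about +100% in these data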;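 also: firefly luciferase made from a UUG start codon reports start codon fidelity; reporter light over untreated wells divided by growth signal over untreated wells; some hits fall short of that in this replicate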
NALP1 yeast inh: inhibitors of NALP1 inflammasome in yeast; S. cerevisiae NALP1/ASC/caspase-1 growth, X-gal OD620, 72 h; inhibition, % at 10 µM; actives 0.61% (n = 280,000); AID 2071; in the data active = inhibition mostly above about 24%, no sharp cut-off; inactive = mostly below about 32%
MC4R barr agon: agonists of human melanocortin 4 receptor (MC4R) beta-arrestin; P32245; U2OS MC4R beta-arrestin complementation, luminescence; percent of melanotan II response, DMSO zero; activation, % at 8.9 µM; actives 0.98% (n = 360,000); AID 540308;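 active = activation above a per-plate cutoff, the mean activation of sample wells on that plate plus 3 SD, cut at about 8% in these data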
HDAC3 inh: inhibitors of human histone deacetylase 3 | O15379 | recombinant HDAC3, fluorogenic peptide/trypsin coupled, fluorescence | inhibition, % at 8.3 µM | actives 0.15% (n = 320,000) | AID 2718; in the data active = inhibition above about 26%, passing the limit was not always enough
MC4R antag cAMP: antagonists of human melanocortin 4 receptor (MC4R) | MC4R-expressing cells, MTII-stimulated cAMP, LANCE TR-FRET | P32245 | inhibition, % at 6.5 µM | actives 0.48% (n = 360,000);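 active = inhibition above its plate's cutoff, the mean of tested wells on that plate plus 3 SD, cut at about 29% in these data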;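 note: 0% = Melanotan II alone and 100% = Melanotan II plus saturating MCL0020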
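Test system: U2OS cells stably expressing human melanocortin 4 receptor (MC4R); also added: Melanotan II challenge; compound: 6.5 µM single dose; timing: 30-min compound preincubation, 1-h Melanotan II challenge, 1-h detection, room temperature; signal: Eu-cAMP/anti-cAMP TR-FRET, emission 671 nm; repeats: one well per compound, no replicates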
ALR H2O2 inh: human ALR oxidase inhibition via reduced H2O2; P55789; purified ALR, DTT oxidation, H2O2 HRP-luminol luminescence; inhibition, % (concentration not given with the values); 3.8% of 290,000 active; AID 485317;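 active = mean and each replicate at 75% or more; inconclusive = only one of the two met; inactive = neither met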;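 note: stock transfer was 7.5 nL into about 7.5 µL; 0% = neutral wells and 100% = wells with inactivated enzyme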
Yeast UUG start-2: modulators of start codon recognition fidelity in yeast; 540 tested, under 10 active; activation, % at 38 µM; shares compounds with Yeast UUG start-1; AID 652061; S. cerevisiae UUG-start firefly luciferase, luminescence, 4 h; 100% means double the DMSO signal;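 active = signal increase whose fitted curve reaches an absolute level of 40 at a concentration under 10 µM; inactive = activity opposite to the expected increase, or the rest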
* hit, by the source's call. Rows were chosen to be rich in hits. Some 4.2% of all compounds tested hit in one or more screens of this group.

`CC(C)C[C@@H](CNCC(=O)[C@H](C)NC(=O)c1[nH]cnc1C(=O)N[C@@H](C)CN)NC(=O)c1nc[nH]c1C(=O)N[C@@H](C)C(=O)O` gave Yeast UUG start-1 147*, MC4R barr agon 1, MC4R antag cAMP 9 and Yeast UUG start-2 1.
CC(C)C[C@@H](CNCC(=O)[C@H](Cc1ccccc1)NC(=O)c1[nH]cnc1C(=O)N[C@@H](C)CN)NC(=O)c1nc[nH]c1C(=O)N[C@@H](C)C(=O)O was read as Yeast UUG start-1 130*, MC4R barr agon 1, MC4R antag cAMP -1 and Yeast UUG start-2 3.
`CC(C)C[C@@H](CNCC(=O)[C@H](C)NC(=O)c1[nH]cnc1C(=O)N[C@@H](C)CN)NC(=O)c1nc[nH]c1C(=O)N[C@@H](CO)C(=O)O` gave Yeast UUG start-1 -7, MC4R barr agon -1 and MC4R antag cAMP 10.
`CO[C@H]1CN(C)C(=O)c2cc(NS(=O)(=O)c3cn(C)cn3)ccc2OC[C@H](C)N(Cc2cccc(F)c2)C[C@H]1C` gave Yeast UUG start-1 -3.
C[C@H](CO)N1C[C@H](C)[C@H](CN(C)S(C)(=O)=O)Oc2ccc(NC(=O)CCN3CCOCC3)cc2CC1=O was read as Yeast UUG start-1 -8.
Screening COC(=O)CSc1nnc(-c2c[nH]c3ccccc23)o1 returned Yeast UUG start-1 -8, NALP1 yeast inh 7, MC4R barr agon -2, HDAC3 inh 17, MC4R antag cAMP 5 and ALR H2O2 inh -1.
Screening COC(=O)CSc1nnc(-c2sc3ccccc3c2Cl)o1 returned Yeast UUG start-1 565*, NALP1 yeast inh -14, MC4R barr agon 0, HDAC3 inh 7, MC4R antag cAMP 6, ALR H2O2 inh -1 and Yeast UUG start-2 -5.
N#CCSc1nnc(-c2sc3ccccc3c2Cl)o1 was read as NALP1 yeast inh 24, MC4R barr agon 5, HDAC3 inh 1, MC4R antag cAMP 10, ALR H2O2 inh 5 and Yeast UUG start-2 -1.
For COc1ccc(-c2nnc(SCC#N)o2)cc1 the results were Yeast UUG start-1 -10, NALP1 yeast inh 30, MC4R barr agon -2, HDAC3 inh 3, MC4R antag cAMP -2 and ALR H2O2 inh -4.
Screening O=C(C[C@@H]1C[C@@H]2c3cc(NC(=O)c4cccnc4)ccc3O[C@@H]2[C@H](CO)O1)NCc1cccc(F)c1 returned Yeast UUG start-1 -14.
Screening COc1ccccc1-c1cnc2c(c1)C(=O)N([C@H](C)CO)C[C@H](C)[C@@H](CN(C)C(=O)c1cccnc1)O2 returned Yeast UUG start-1 5.
`COc1ccc(-c2cnc3c(c2)C(=O)N([C@@H](C)CO)C[C@H](C)[C@@H](CN(C)C(=O)NC2CCCC2)O3)cc1` gave Yeast UUG start-1 140* and Yeast UUG start-2 inactive.
COc1ccccc1-c1cnc2c(c1)C(=O)N([C@@H](C)CO)C[C@H](C)[C@@H](CN(C)C(=O)c1cccnc1)O2 was read as Yeast UUG start-1 172* and Yeast UUG start-2 inactive.
`CCCNC(=O)N(C)C[C@@H]1Oc2ncc(-c3ccc(C(=O)N(C)C)cc3)cc2C(=O)N([C@@H](C)CO)C[C@H]1C` gave Yeast UUG start-1 104* and Yeast UUG start-2 inactive.
Screening C[C@H](CO)N1C[C@H](C)[C@@H](CN(C)CC2CCOCC2)Oc2ncc(-c3cccc(F)c3)cc2C1=O returned Yeast UUG start-1 157* and Yeast UUG start-2 inactive.
`COc1ccc(S(=O)(=O)N(C)C[C@H]2Oc3ccc(NC(=O)CCCN(C)C)cc3C(=O)N([C@@H](C)CO)C[C@@H]2C)cc1` gave Yeast UUG start-1 8.
Screening Cc1noc(C)c1S(=O)(=O)Nc1ccc2c(c1)C(=O)N([C@@H](C)CO)C[C@H](C)[C@@H](CN(C)Cc1ccccc1)OCCCC[C@@H](C)O2 returned Yeast UUG start-1 16.
C=C(C)C(=O)Nc1ccc(OC(F)(F)C(F)F)c(NC(=O)C(=C)C)c1 was read as Yeast UUG start-1 635*, NALP1 yeast inh 9, MC4R barr agon 0, HDAC3 inh 3, MC4R antag cAMP 3, ALR H2O2 inh -13 and Yeast UUG start-2 -6.
CC(=O)Nc1ccc(OC(F)(F)C(F)F)c(NC(C)=O)c1 was read as Yeast UUG start-1 -1, NALP1 yeast inh 2, MC4R barr agon -1, HDAC3 inh 9, MC4R antag cAMP 10 and ALR H2O2 inh -9.
O=c1[nH]c(/C=C\c2ccc(O)c(Cl)c2)nc(O)c1[N+](=O)[O-] was read as Yeast UUG start-1 167*, NALP1 yeast inh 7, MC4R barr agon 0, HDAC3 inh 6, MC4R antag cAMP -9, ALR H2O2 inh 28 and Yeast UUG start-2 2.

Ordered by heavy-atom count (high to low): 3 of the compounds above.
`CCCNC(=O)N(C)C[C@@H]1Oc2ncc(-c3ccc(C(=O)N(C)C)cc3)cc2C(=O)N([C@@H](C)CO)C[C@H]1C` gave Yeast UUG start-1 104* and Yeast UUG start-2 inactive.
Screening COc1ccccc1-c1cnc2c(c1)C(=O)N([C@H](C)CO)C[C@H](C)[C@@H](CN(C)C(=O)c1cccnc1)O2 returned Yeast UUG start-1 5.
C=C(C)C(=O)Nc1ccc(OC(F)(F)C(F)F)c(NC(=O)C(=C)C)c1 was read as Yeast UUG start-1 635*, NALP1 yeast inh 9, MC4R barr agon 0, HDAC3 inh 3, MC4R antag cAMP 3, ALR H2O2 inh -13 and Yeast UUG start-2 -6.

(more compounds)
For CCCCC12CN3CC(C)(CN(C1)C3c1ccc([N+](=O)[O-])o1)C2=O (stereo not drawn) the results were Yeast UUG start-1 146*, NALP1 yeast inh 16, MC4R barr agon 0, HDAC3 inh 5, MC4R antag cAMP 3 and Yeast UUG start-2 2.
Screening Cc1noc(C)c1S(=O)(=O)Nc1ccc2c(c1)CC(=O)N([C@H](C)CO)C[C@H](C)[C@@H](CN(C)S(=O)(=O)c1ccc(F)cc1)O2 returned Yeast UUG start-1 8.
For CCOC(=O)CNC(=O)c1ccccc1 the results were Yeast UUG start-1 103*, NALP1 yeast inh -7, MC4R barr agon -1, HDAC3 inh -5, MC4R antag cAMP 5 and Yeast UUG start-2 10.
Screening O=C(CNC(=O)c1ccccc1)OCCCOC(=O)CNC(=O)c1ccccc1 returned Yeast UUG start-1 -22, NALP1 yeast inh -3, MC4R barr agon -4, HDAC3 inh 1, MC4R antag cAMP 3 and ALR H2O2 inh 3.
`CC(C)NC(=O)Nc1ccc2c(c1)CC(=O)N([C@H](C)CO)C[C@H](C)[C@H](CN(C)S(=O)(=O)c1cccs1)O2` gave Yeast UUG start-1 22.
For COc1cccc(Oc2nc3ncn(Cc4ccccc4)c3c(=O)n2C)c1 the results were Yeast UUG start-1 113*, NALP1 yeast inh 10, MC4R barr agon -2, HDAC3 inh -7, MC4R antag cAMP 4, ALR H2O2 inh -3 and Yeast UUG start-2 13.
Screening O=C(C1CCCC1)N1C[C@H]2[C@@H](c3ccccc31)[C@@H](CO)N2C(=O)Nc1cccc(F)c1 returned Yeast UUG start-1 18.
For C[C@H]1CCCCO[C@@H](CN(C)C)[C@@H](C)CN([C@@H](C)CO)C(=O)c2cc(NS(=O)(=O)c3ccc(F)cc3)ccc2O1 the results were Yeast UUG start-1 22.

Source: PubChem (several laboratories)
